# Test results as given in the supplement of paper PMC8007513.
# ± gives the standard error. Only a part is listed here, and it is no random draw.
# System: Trichoderma virens ATCC 9645
# Assay: growth yield (OD600) relative to untreated control; higher = less growth inhibition
# Conditions: compound concentration: 100 uM
# Summary of the method: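 For each 96-well plate, 100 μl aliquots were prepared with Trichoderma virens ATCC 9645 spores suspended at 15,000 spores ml^−1 in potato dextrose broth. The spores had been harvested from potato dextrose agar plates after 7 days. Library compounds were present at 100 μM final, some wells also receiving a biocide at 200 ng ml^−1, and plates were grown at 30 °C with OD600 read on a BioTek EL800 at 40 h and 72 h. Reported growth, relative to the control lacking both agents, is the mean of duplicate screens.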
compound,measurement,setting,value
COc1cc(Br)c(C[N+]2(CCOCCC3CCC4CC3C4(C)C)CCOCC2)cc1OC (configuration not stated) [Pinaverium bromide],growth yield,40 h,2.54 ± 0.95%
same,growth yield,72 h,20.5 ± 14%
